In ChEMBL document CHEMBL5038570, “Discovery of Novel Pyrrolo[2,3-d]pyrimidine-based Derivatives as Potent JAK/HDAC Dual Inhibitors for the Treatment of Refractory Solid Tumors” (J Med Chem, 2022):

Biological target: T1, Polyamine deacetylase HDAC10 (Homo sapiens, UniProt Q969S8)
T1 sequence (Q969S8 whole entry): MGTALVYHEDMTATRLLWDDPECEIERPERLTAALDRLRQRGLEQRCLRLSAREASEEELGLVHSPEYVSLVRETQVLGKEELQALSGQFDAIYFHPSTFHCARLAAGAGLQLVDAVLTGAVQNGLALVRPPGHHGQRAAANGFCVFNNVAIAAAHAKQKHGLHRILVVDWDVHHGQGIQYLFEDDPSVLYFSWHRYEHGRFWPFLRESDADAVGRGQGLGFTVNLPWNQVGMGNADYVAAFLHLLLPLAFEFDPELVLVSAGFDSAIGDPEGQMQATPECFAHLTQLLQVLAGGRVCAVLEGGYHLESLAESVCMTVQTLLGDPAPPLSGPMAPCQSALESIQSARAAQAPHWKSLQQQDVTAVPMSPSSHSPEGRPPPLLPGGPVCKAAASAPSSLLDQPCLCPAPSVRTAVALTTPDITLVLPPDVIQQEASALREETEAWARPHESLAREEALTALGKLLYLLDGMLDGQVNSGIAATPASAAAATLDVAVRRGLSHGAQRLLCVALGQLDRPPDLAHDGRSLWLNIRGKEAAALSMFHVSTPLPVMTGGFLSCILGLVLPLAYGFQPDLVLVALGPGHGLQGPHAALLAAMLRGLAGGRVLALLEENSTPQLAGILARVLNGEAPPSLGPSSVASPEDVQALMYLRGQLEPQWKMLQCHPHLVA

- IC50: 47.5 nM
Compound: O=C(CCCCCCC(=O)Nc1ccccc1)NO [VORINOSTAT]
